One test has as its target ORL 1-receptor (Homo sapiens (Human), UniProt P41146). The test can be described thus: ORL 1 receptor binding assay with 3H-nociceptin/orphanin FQ (membranes of recombinant CHO-ORL 1 cells). As to conditions: for % Inhibition (ORL1) [1 μM]: test concentration 1 μM.
In another test the target is human μ-opiate receptor (Homo sapiens (Human), UniProt P35372). The test is described as follows: μ-opiate receptor binding assay with [3H]-naloxone (CHO-K1 membrane preparation). To be noted: test concentration 1 μM.

Chains of the proteins cited; added tags and fusions are not shown. Lines headed by an entry give the natural chain unless they say otherwise; changes in a name come on top.
UniProt P41146: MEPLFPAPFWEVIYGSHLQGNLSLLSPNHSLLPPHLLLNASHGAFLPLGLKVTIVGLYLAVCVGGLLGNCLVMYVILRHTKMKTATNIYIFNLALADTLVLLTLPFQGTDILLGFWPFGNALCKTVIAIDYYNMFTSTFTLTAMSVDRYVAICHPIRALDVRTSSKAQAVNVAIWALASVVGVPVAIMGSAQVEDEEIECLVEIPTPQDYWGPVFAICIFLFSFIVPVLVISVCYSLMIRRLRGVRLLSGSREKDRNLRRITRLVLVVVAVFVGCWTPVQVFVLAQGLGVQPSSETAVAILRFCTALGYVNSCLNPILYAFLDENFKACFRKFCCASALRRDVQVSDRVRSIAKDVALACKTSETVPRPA
UniProt P35372, whole entry, looked up: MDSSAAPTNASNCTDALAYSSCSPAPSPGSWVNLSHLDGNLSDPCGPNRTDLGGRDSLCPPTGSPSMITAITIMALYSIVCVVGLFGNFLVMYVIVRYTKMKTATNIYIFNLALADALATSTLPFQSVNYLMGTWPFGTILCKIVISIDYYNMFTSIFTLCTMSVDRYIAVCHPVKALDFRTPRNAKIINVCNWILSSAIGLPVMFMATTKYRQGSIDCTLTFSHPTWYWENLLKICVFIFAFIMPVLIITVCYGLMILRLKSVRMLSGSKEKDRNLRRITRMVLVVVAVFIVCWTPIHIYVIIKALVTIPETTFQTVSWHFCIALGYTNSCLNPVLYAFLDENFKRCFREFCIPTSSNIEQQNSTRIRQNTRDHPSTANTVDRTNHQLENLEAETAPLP

Experimental findings from patent US9403767B2, “Substituted 4-aminocyclohexane derivatives” (dated 2016) are described below.

Regarding `CN(C)C1(C(=N)c2cc3ccccc3n2C)CCC(c2ccccc2)(N(C)C)CC1.O=C(O)CC(O)(CC(=O)O)C(=O)O.O=C(O)CC(O)(CC(=O)O)C(=O)O` (single isomer, unassigned), the “% Inhibition (ORL1) [1 μM]” value on ORL 1-receptor is reported as 26%. At human μ-opiate receptor, the “% Inhibition (μ) [1 μM]” value was determined as 46%.

In the case of `CN(C)C1(c2ccccc2)CCC(C(=O)c2cc3ccccc3n2C)(N2CCCC2)CC1` (single isomer, unassigned), the “% Inhibition (ORL1) [1 μM]” value on ORL 1-receptor is on record as 34%. The “% Inhibition (μ) [1 μM]” value at human μ-opiate receptor was found to be 48. %. `Cc1c(C2(N(C)C)CCC(c3ccccc3)(N(C)C)CC2)[nH]c2ccccc12` (single isomer, unassigned): on ORL 1-receptor, the “% Inhibition (ORL1) [1 μM]” value is listed as 29%. For `COc1ccc(Oc2nc(Oc3ccc(OC)cc3)nc(N(C)C3(c4ccccc4)CCC(c4ccccc4)(N(C)C)CC3)n2)cc1` (stereo not shown), the “% Inhibition (ORL1) [1 μM]” value on ORL 1-receptor turned out to be 25%. Moreover, the “% Inhibition (μ) [1 μM]” value on human μ-opiate receptor is given as 64%.

Turning to “2-[(4-dimethylamino-1,4-diphenyl-cyclohexyl)-methyl-amino]-N-methyl-acetamide”, at ORL 1-receptor, the “% Inhibition (ORL1) [1 μM]” value was 23%. For the molecule `CNc1nc(N2CCCCC2)nc(N(C)C2(c3ccccc3)CCC(c3ccccc3)(N(C)C)CC2)n1` (stereo not shown), at ORL 1-receptor, the “% Inhibition (ORL1) [1 μM]” value came out at 67%. The “% Inhibition (μ) [1 μM]” value on human μ-opiate receptor came to 33%. For `Cc1c(C2(N3CCCC3)CCC(c3ccccc3)(N(C)C)CC2)[nH]c2ccccc12.Cl.Cl` (stereo not shown), the “% Inhibition (ORL1) [1 μM]” value on ORL 1-receptor is on record as 61%. Further, the “% Inhibition (μ) [1 μM]” value at human μ-opiate receptor was 18%. For `CN(C)C1(C(=N)c2cc3ccccc3n2C)CCC(c2ccccc2)(N(C)C)CC1.O=C(O)CC(O)(CC(=O)O)C(=O)O.O=C(O)CC(O)(CC(=O)O)C(=O)O` (stereo not shown), in that order: 81% and 0%. For `CNc1nc(Oc2ccc(OC)cc2)nc(N(C)C2(c3ccccc3)CCC(c3ccccc3)(N(C)C)CC2)n1` (stereo not shown), at ORL 1-receptor, the “% Inhibition (ORL1) [1 μM]” value worked out at 53%. On the same count and under the same terms, the result for `Cc1c(C2(N3CCCC3)CCC(c3ccccc3)(N(C)C)CC2)[nH]c2ccc(F)cc12` (stereo not shown) reads 23%; that for `CNc1nc(Oc2ccc(OC)cc2)nc(N(C)C2(c3ccccc3)CCC(c3ccccc3)(N(C)C)CC2)n1` (single isomer, unassigned), 98%. Same read-out and setting: the figure for `CN(C)C1(c2ccccc2)CCC(c2ccccc2)(N(C)Cc2cccc(F)c2)CC1` (single isomer, unassigned) is 89%; for `CN(C)CC1(c2ccccc2)CCC(c2ccccc2)(N(C)C)CC1` (single isomer, unassigned) it is 66%. Still for that read-out and setting: the result for `CN(C)C(=O)CN(C)C1(c2ccccc2)CCC(c2ccccc2)(N(C)C)CC1` (stereo not shown) reads 70%.

For `CNC(=O)CN(C)C1(c2ccccc2)CCC(c2ccccc2)(N(C)C)CC1` (stereo not shown), the “% Inhibition (ORL1) [1 μM]” value at ORL 1-receptor is listed as 83%. The same measure, in the same setting: the figure for `Cc1c(C2(N(C)C)CCC(c3ccccc3)(N(C)C)CC2)[nH]c2ccccc12` (stereo not shown) is 30%; for `CN(C)C1(c2ccccc2)CCC(c2ccccc2)(N(C)CCO)CC1` (single isomer, unassigned) it is 36%. Regarding `CN(C)C1(c2ccccc2)CCC(c2ccccc2)(N(C)Cc2cccc(F)c2)CC1` (stereo not shown), the inhibition constant (Ki) – broadly, the equilibrium dissociation constant of an inhibitor or competing ligand from its target – on ORL 1-receptor (read-out: Ki (ORL1) Mean) is 1.43 nM. For the same molecule, on ORL 1-receptor, the “% Inhibition (ORL1) [1 μM]” value is 52%.

For the molecule `CN(C)C1(c2ccccc2)CCC(c2ccccc2)(N(C)C(=O)c2cccnc2)CC1` (stereo not shown), the “% Inhibition (ORL1) [1 μM]” value on ORL 1-receptor is recorded as 54%.

Regarding `Cc1c(C2(N(C)C)CCC(c3ccccc3)(N(C)C)CC2)[nH]c2ccc(F)cc12` (stereo not shown), the “% Inhibition (ORL1) [1 μM]” value at ORL 1-receptor amounted to 48%.

As to `CNc1nc(NC)nc(N(C)C2(c3ccccc3)CCC(c3ccccc3)(N(C)C)CC2)n1` (single isomer, unassigned), the “% Inhibition (ORL1) [1 μM]” value at ORL 1-receptor amounted to 44%. Consider `CNc1nc(NC)nc(N(C)C2(c3ccccc3)CCC(c3ccccc3)(N(C)C)CC2)n1` (stereo not shown), for which, at ORL 1-receptor, the “% Inhibition (ORL1) [1 μM]” value is on record as 35%. The same measure, in the same setting: the figure for `Cc1c(C2(N(C)C)CCC(c3ccccc3)(N(C)C)CC2)[nH]c2ccc(F)cc12` (single isomer, unassigned) is 35%. Still for that read-out and setting: the result for `Cc1c(C2(N3CCCCC3)CCC(c3ccccc3)(N(C)C)CC2)[nH]c2ccccc12` (stereo not shown) reads 27%.
